Consider 1 compound from patent US20070037179A1, “Methods of diagnosing and prognosticating solid tumors and melanoma” (priority 2004, published 2007).

The chains behind the UniProt entries cited, without tags or fusion partners.
UniProt P0DMS8, whole entry: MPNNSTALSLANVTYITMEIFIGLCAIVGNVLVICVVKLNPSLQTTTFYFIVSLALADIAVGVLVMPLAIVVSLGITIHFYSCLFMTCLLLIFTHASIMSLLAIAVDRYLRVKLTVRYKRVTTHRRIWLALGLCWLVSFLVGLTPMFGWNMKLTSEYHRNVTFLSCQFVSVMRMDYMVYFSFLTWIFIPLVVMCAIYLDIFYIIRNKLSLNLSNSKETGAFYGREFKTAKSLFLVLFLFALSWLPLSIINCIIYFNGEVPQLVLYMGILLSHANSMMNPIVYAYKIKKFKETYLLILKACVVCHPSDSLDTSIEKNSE

Structures are written as SMILES.

Assay [1] concerns the target T1, A3 adenosine receptors (Homo sapiens, UniProt P0DMS8). The assay is described as follows: [3H]MRE 3008F20 saturation binding to membranes of peripheral blood lymphocytes and neutrophils. Also noted: endogenous in cells; host or cells: neutrophils and lymphocytes from peripheral venous blood of colorectal cancer patients and healthy volunteers. The note with it: N=3. Here is the method:
(§1) Non-specific binding was determined in the presence of 1 μM MRE 3008F20. Bound and free radioactivity were separated, after an incubation time of 120 min at 4° C., by filtering the assay mixture using a Brandel cell harvester. The protein concentration was determined according to a Bio Rad method (26). Binding to A1 and A2A adenosine receptors was performed using [^3H]1,3-dipropyl-8-cyclopentyl-xanthine ([^3H]DPCPX) and [^3H]4-(2-[7-amino-2-(2-furyl)-[1,2,4]triazolo-[2,32][1,3,6]triazinyl-amino]ethyl)-phenol ([^3H]ZM 241385), respectively, as previously described (16, 24).
(§2) Data and statistical analysis. A weighted nonlinear least squares curve fitting program, LIGAND was used for computer analysis of the data from saturation experiments (28). Significant differences between control and patients with colorectal cancer were assessed using Student's t-test or analysis of variance (ANOVA) and the Dunnett's test when required. P<0.05 was considered significant. All data are reported as means±SEM.

Assay [2] deals with T1, A3 adenosine receptors. The assay is described as follows: [3H]MRE 3008F20 saturation binding to colonic membranes. Also noted: Colon cancer tissues and related mucosa were homogenized in PBS buffer with a Polytron (Kinematica) and centrifuged; from tissue; host or cells: surgical specimens of human colorectal carcinoma, adenoma and adjacent/remote normal colonic mucosa. Here is the method: PREPARATION OF COLONIC MEMBRANE SUSPENSIONS. Colon cancer tissues and related mucosa were homogenized in PBS buffer with a Polytron (Kinematica) and centrifuged for 15 min at 48,000 g. The membrane pellet was resuspended in 50 mM Tris/HCl buffer pH 7.4 (50 mM Tris/HCl, 10 mM MgCl2, 1 mM EDTA) and incubated with 3 IU/ml of adenosine deaminase for 30 min at 37° C. This suspension was used for binding experiments.
as §1, §2

Broadly, the Kd is the constant that tells how readily two partners part at equilibrium. For the compound `CCCn1cc2c(nc(NC(=O)Nc3ccc(OC)cc3)n3nc(-c4ccco4)nc23)n1` [[^3H]MRE 3008F20, 5-N-(4-methoxyphenyl-carbamoyl)amino-8-propyl-2(2furyl)-pyrazolo-[4,3 e]-1,2,4-triazolo [1,5-c]pyrimidine], the Kd in assay [1] (lymphocytes of patients with small adenomas) was 2.46 ± 0.52 nM; in assay [1] (neutrophils of patients with small adenomas) it was 2.67 ± 0.29 nM; in assay [2] (adjacent normal (AN) mucosa, 2 cm from tumor), 4.56 ± 0.21 nM; in assay [2] (colonic membranes from 14 patients operated for non-neoplastic large bowel disease), 2.93 ± 0.19 nM; in assay [2] (large adenomas with high-grade dysplasia, N=4) it was 6.3 ± 0.8 nM; in assay [2] (remote normal (RN) mucosa, 10 cm from tumor), 3.01 ± 0.13 nM. The Kd worked out at 2.99 ± 0.5 nM in assay [2] (small adenomas with low-grade dysplasia, N=4) and 8.73 ± 0.37 nM in assay [2] (tumor tissues, 73 primary colorectal carcinomas, mean±SEM).
